Reference: patent US20040143461A1, “Generating, viewing, interpreting, and utilizing a quantitative database of metabolites” (Lipomics Technologies, Inc., priority 2001, published 2004)

Test system: plasma lipid metabolome
Settings: treated mice, trial 1, 4 weeks; untreated 1,400 nmol/g
Procedure: Mouse tissue and plasma samples were a generous donation to Lipomics Technologies from Dr. Edward Leiter of the Jackson Laboratory (Bar Harbor, Me.). Samples included the plasma, heart, liver and inguinal adipose of mice treated with pharmaceuticals or their corresponding controls.
In both studies, five treated and five control mice were used. Following the treatments and the killing of the mice, tissues and plasma were taken, chilled to −80° C. and shipped to the analysis laboratory at Lipomics Technologies in a frozen state.
The lipids from plasma and tissues were extracted in the presence of authentic internal standards by the method of Folch et al. (J. Biol. Chem. 226, 497-509, 1957) by homogenization in a fluid extractant consisting of chloroform:methanol (2:1 vol:vol). Plasma (200 μl), or 10 mg inguinal adipose tissue was used for each analysis. For each sample, an appropriate mass of internal standard was added. […]

CN(CCOc1ccc(CC2SC(=O)NC2=O)cc1)c1ccccn1 (stereo not shown) [rosiglitazone]
Total plasma triacylglyceride concentrations: 400 nmol/g
